Assay [1] deals with metallo-β-lactamases (Bacillus cereus enzyme) (Bacillus cereus, UniProt P04190). Conditions: Mollard et al. (2001); cited from earlier work.
In assay [2] the target is B. cereus 5/B/6 metallo-β-lactamase (Bacillus cereus, UniProt P14488). Format: biochemical. Conditions: for IC50: pH=7.0, 4 mM cephalosporin C.

The chains behind the UniProt entries cited, without tags or fusion partners. Residues count along the entry.
UniProt P04190, 31-257: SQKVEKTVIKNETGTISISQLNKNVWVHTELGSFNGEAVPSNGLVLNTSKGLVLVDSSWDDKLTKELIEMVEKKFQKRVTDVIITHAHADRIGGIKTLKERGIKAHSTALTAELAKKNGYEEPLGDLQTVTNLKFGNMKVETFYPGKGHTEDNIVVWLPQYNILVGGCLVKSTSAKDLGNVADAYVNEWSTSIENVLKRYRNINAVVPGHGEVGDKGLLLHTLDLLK
UniProt P14488, 30-256: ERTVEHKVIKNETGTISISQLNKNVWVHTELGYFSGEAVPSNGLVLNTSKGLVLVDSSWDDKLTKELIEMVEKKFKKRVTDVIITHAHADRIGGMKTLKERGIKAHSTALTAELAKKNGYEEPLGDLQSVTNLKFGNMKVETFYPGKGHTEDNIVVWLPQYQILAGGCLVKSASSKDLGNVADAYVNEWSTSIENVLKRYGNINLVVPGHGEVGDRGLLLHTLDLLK

Where two headings read alike, the source gives them in different places.

For the substance thiomandelic acid [S-isomer], in assay [1], the Ki – broadly, a measure of affinity in units of concentration, obtained from inhibition or displacement – was 1280 nM.
Turning to 5′-d(CCAAACTTGG)-3′ [10-mer], the IC50 (in general, the point on the concentration scale where inhibition reaches its midpoint) stood at 32 nM in assay [2] (assay in the presence of 1 mM ZnSO4, 50 mM MOPS, read-out: IC50 in the presence of Zn2+ ions) and 1.2 nM in assay [2] (enzyme preincubated 15 min at 30° C. in 50 mM MOPS, read-out: IC50). Further, the Ki amounted to 1.5 nM in assay [2] (intercept replot of Lineweaver-Burk data, read-out: Ki′ (dissociation constant for the inhibitor from the enzyme-substrate-inhibitor complex)) and 0.31 nM in assay [2] (slope replot of Lineweaver-Burk data, read-out: Ki (dissociation constant for the inhibitor from the enzyme-inhibitor complex)).
As for thiomandelic acid, in assay [1], the type of inhibition result is reported as “competitive inhibitor”.

The values are drawn from US7456274B2, “Inhibition of metallo-β-lactamase” (priority 2003, dated 2008).
